## AlphaSeq binding of Ab-14 heavy chain variants to a spike HR2 peptide

Data: MIT Lincoln Laboratory AlphaSeq set, Li et al. 2023, doi:10.1038/s41467-023-39022-2, as distributed in FLAb.

Binding partner: SARS-CoV-2 spike HR2 peptide, sequence PDVDLGDISGINAS.

The variants keep the light chain, the linker and the frameworks of Ab-14 (scFv order VH, the linker GGGGSGGGGSGGGGS, VL).
VH: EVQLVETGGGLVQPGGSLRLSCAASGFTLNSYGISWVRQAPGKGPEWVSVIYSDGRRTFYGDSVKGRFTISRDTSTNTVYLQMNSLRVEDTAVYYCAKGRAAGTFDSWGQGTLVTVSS
VL: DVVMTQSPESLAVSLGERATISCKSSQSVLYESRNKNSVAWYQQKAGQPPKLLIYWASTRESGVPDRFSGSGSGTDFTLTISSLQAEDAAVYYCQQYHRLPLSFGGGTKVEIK

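The starting antibody came from a phage panning campaign against this peptide. This is the validation round: designs drawn from the data on random variants, tested in the same kind of assay. Several design methods are mixed in this list. The scFvs were displayed on barcoded MATa yeast, the peptide on MATalpha yeast. Mating (16 h, 30 °C) was followed by selection of diploids and sequencing of their barcodes. A regression on co-assayed BCL2-family reference pairs converts the normalised counts of each replicate to an apparent Kd. Mating was done six times.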

Variants are written as CDR1, CDR2 and CDR3 of the heavy chain (limits as in the source). Parent: GFTLNSYGIS, VIYSDGRRTFYGDSVK, GRAAGTFDS. Variants here have more than six changes. The Kd shown is the geometric mean over detected replicates; a lower Kd is a better binder. "not detected" means that the variant was in the library but no mating with the target was seen in any replicate; the authors take this as a sign of poor binding, and no number exists. As a blank, each scFv also met three strains without target: over all heavy chain designs, 1% of these pairings were detected, typically at 120 nM and seldom below 7.0 nM. A sequence measured in both rounds can read differently, since the two assays cover different ranges. In the paper, a design with two or fewer of six values counts as a poor binder.

CDR-H1	CDR-H2	CDR-H3	Kd (apparent)	seen in
GFNLDEFGIS	VIYADGNRTFYLDSFK	GTNVGTVDI	not detected	0 of 6
GFNLNSYGIS	FIYSDGQRVSYRGDVK	GRAAVTFDS	not detected	0 of 6
GFDIDEYGIS	VIYADGFRAVYTNSVK	GHNGMRLTV	1.5 µM	1 of 6
GFNLNEYGIS	VIYADGRRTFYADSVK	GHNAGTFDV	370 pM	6 of 6
GFSLDEYGIS	VIYADGFRTAYTNSVK	GLMQQGRTV	not detected	0 of 6
GFDLNEYGIS	VIYADGRRTAYVDSVK	GEVAGTFDS	380 pM	6 of 6
GYDLQDYGIS	VIYADGVRVFYHQSVK	GQLAGIFLL	not detected	0 of 6
GKSIEEYGIS	VIYADGQRNAYAETVK	GMNGGVFSY	not detected	0 of 6
GFDLNEYGIS	VIYADGMRTAYTDSVK	GNNAGTFDM	260 pM	6 of 6
GFDLNEYGIS	VIYADGRRTAYADSVK	GTNAGTFDQ	80 pM	6 of 6
GFDLNEYGIS	VIYADGRRTYYADSVK	GQNAGTFDQ	310 pM	6 of 6
GFNINEYGIS	VIYADGQRLSYDDKVK	GEITGTFNS	not detected	0 of 6
GFSLDEYGIS	VIYADGLRTQYHNKVK	GLQGGFFDQ	not detected	0 of 6
GFDLNEYGIS	VIYADGRRTFYADSVK	GTNAGTFDV	860 pM	6 of 6
GFDLNEYGIS	VIYADGKRTAYADSVK	GQNAGTFDV	660 pM	6 of 6
GFALDEYGIS	VIYADGTRSAYIETVK	GHSGADFIV	not detected	0 of 6
GFSIDEYGIS	VIYADGVRQAYQDSVK	GQIGGTFNY	430 pM	6 of 6
GFDLNEYGIS	VIYADGRRTAYVDNVK	GEVAGTFDV	330 pM	6 of 6
GFDLNEYGIS	VIYADGLRTFYTDNVK	GELAGTFDV	86 pM	6 of 6
GFDLNEYGIS	VIYADGVRTAYVDSVK	GSNAGTFDV	160 pM	4 of 6
GFQLNEYGIS	VIYADGMRSEYQDSVK	GSNNSSFKV	not detected	0 of 6
GFDLDEYGIS	VIYADGKRTAYADDVK	GNNAGTFDI	380 pM	3 of 6
GFNLDEYGIS	VIYADGRRTFYADSVK	GEAAGTFDV	290 pM	6 of 6
GFDLDEMGIS	VIYADGRRTAYSNAVK	GNNVYGLMV	not detected	0 of 6
GFDLNEYGIS	VIYADGRRSFYSDSVK	GEAAGTFDV	690 pM	6 of 6
GFDLDEYGIS	VIYADGQRTAYADSVK	GNTAGTFDM	750 pM	6 of 6
GFDLDEEGIS	VIYADGQRTAYSQQVK	GNFDGKVMD	61 nM	1 of 6
GFDLDEYGIS	VIYADGRRTAYTDSVK	GNQAGTFDV	4.2 pM	6 of 6
GFNLNDYGIS	VIYADGHRRYYVDNVK	GHLAGTFFM	not detected	0 of 6
GFDLEEYGIS	VIYADGVRTAYKNKVK	GWAAGGQFD	not detected	0 of 6
GFDLNEYGIS	VIYADGKRTFYSDSVK	GEIAGTFDQ	230 pM	6 of 6
GFDLNEYGIS	VIYADGKRTAYADSVK	GGNAGTFDT	340 pM	6 of 6
GFDLNEYGIS	VIYADGRRTFYADSVK	GNAAGTFIM	290 nM	2 of 6
GDSLDEYGIS	VIYADGQRKAYMDSVK	GNGQGTLFD	not detected	0 of 6
GFDLNEYGIS	VIYADGRRTFYSDSVK	GQLAGTFDK	390 pM	6 of 6
GFDLNEYGIS	VIYADGVRTAYADNVK	GNQAGTFDI	540 pM	6 of 6
GMDLEEYGIS	VIYADGMRTYAVDSVK	GDQGGTLLY	not detected	0 of 6
GFNLDEYGIS	VIYADGQRTFYADSVK	GQVAGTFDS	300 pM	6 of 6
GFNLDEYGIS	VIYADGMRTAYADSVK	GNVAGTFDL	140 pM	6 of 6
GFDLDEYGIS	VIYADGKRTAYANSVK	GNVAGTFDV	430 pM	6 of 6
GFDLDEYGIS	VIYADGMRTVYTDSVK	GNVAGTFDV	370 pM	6 of 6
GSSLDEYGIS	VIYADGQRVQYADPVK	GIQAGNVDV	not detected	0 of 6
GFDLDEYGIS	VIYADGKRMAYTADVK	GVQGGNALV	not detected	0 of 6
GFNLDEYGIS	VIYADGQRTAYAQHVK	GGGGTDRGI	not detected	0 of 6
GFDLNEYGIS	VIYADGMRTAYTDDVK	GENAGTFDL	620 pM	6 of 6
GFDIEEYGIS	VIYADGQRKSYINSFK	GQNNGIGMY	not detected	0 of 6
GFNLDEYGIS	VIYADGRRTFYSDDVK	GEVAGTFDI	270 pM	6 of 6
GFNLDEYGIS	VIYADGMRRAYVDEVK	GYFSDIQLM	not detected	0 of 6
GFDLNEYGIS	VIYADGVRTAYTDSVK	GANAGTFDV	370 pM	6 of 6
GFDLDEYGIS	VIYADGSRTAYTDSVK	GEVAGTFDV	1.3 nM	6 of 6
GFDLNEYGIS	VIYADGSRTAYADSVK	GNEAGTFDM	1.8 nM	6 of 6
GFDLNEYGIS	VIYADGHRTKYQNNVK	GGQADFALL	not detected	0 of 6
GFDLNEYGIS	VIYADGRRSYYADSVK	GQNAGTFDV	330 pM	6 of 6
GFDLEEYGIS	VIYADGMRQYAQDNVK	GLISGKGKT	not detected	0 of 6
GFDLNEYGIS	VIYADGMRTFYTDSVK	GEHAGIFDV	2.1 nM	6 of 6

The 5 strongest on average among those seen in every replicate, once more:

CDR-H1	CDR-H2	CDR-H3	Kd (apparent)	seen in
GFDLDEYGIS	VIYADGRRTAYTDSVK	GNQAGTFDV	4.2 pM	6 of 6
GFDLNEYGIS	VIYADGRRTAYADSVK	GTNAGTFDQ	80 pM	6 of 6
GFDLNEYGIS	VIYADGLRTFYTDNVK	GELAGTFDV	86 pM	6 of 6
GFNLDEYGIS	VIYADGMRTAYADSVK	GNVAGTFDL	140 pM	6 of 6
GFDLNEYGIS	VIYADGKRTFYSDSVK	GEIAGTFDQ	230 pM	6 of 6